Reference: patent publication US9040714B2 (MannKind Corporation, priority 2010, dated 2015)

Protein sequences, listed by entry. Tags and fused reporters are not part of them. Residues count along the entry.
UniProt O75460, 19-977: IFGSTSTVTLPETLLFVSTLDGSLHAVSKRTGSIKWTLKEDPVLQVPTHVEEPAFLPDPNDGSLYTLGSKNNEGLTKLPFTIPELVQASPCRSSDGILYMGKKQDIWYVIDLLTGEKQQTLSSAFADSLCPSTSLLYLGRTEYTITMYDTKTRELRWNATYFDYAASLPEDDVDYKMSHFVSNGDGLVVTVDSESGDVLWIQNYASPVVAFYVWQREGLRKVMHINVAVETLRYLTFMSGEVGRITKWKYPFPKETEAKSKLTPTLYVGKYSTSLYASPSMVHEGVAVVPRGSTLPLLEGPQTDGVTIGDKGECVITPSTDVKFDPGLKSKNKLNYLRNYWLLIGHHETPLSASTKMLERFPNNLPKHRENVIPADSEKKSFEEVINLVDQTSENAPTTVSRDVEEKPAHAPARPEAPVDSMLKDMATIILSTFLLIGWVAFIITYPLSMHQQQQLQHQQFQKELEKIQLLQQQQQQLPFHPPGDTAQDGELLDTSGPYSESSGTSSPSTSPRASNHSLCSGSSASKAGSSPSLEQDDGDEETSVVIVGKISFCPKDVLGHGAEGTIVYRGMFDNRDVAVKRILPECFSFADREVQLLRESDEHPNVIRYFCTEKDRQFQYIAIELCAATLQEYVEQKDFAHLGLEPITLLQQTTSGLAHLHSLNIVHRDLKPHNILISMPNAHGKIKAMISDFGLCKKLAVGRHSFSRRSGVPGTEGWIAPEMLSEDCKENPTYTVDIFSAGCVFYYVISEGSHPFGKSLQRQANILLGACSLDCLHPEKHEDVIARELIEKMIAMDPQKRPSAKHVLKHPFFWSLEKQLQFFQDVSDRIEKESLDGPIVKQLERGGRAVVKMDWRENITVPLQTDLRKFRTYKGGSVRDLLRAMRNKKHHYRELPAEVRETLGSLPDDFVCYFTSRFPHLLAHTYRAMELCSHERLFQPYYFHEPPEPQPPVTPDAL

Target: human IRE-1α (GST-IRE-1α) (Homo sapiens (Human), UniProt O75460)
Experiment: IRE-1α assay in vitro: cleavage of Cy5/BHQ2-labelled mini-XBP-1 mRNA stem-loop substrate
Format: biochemical
Details: average IC50 for inhibition of IRE-1α
Text: The compounds are understood to act through inhibition of the RNAse activity of the enzyme. In some embodiments IRE-la inhibitor compounds form a complex with IRE-1α. In particular embodiments this activity is detected as cleavage of a human mini-XBP-1 mRNA stem-loop substrate 5′-CAGUCCGCAGGACUG-3′ (SEQ ID NO:1) by IRE-1α in vitro by 10 to 100%. Other substrates also can be used to detect cleavage. See US 2007/0105123.
A fusion protein comprising glutathione S transferase (GST) and human IRE-1α (GST-IRE-1α) obtained from a 500 ml baculovirus-infected insect cell culture can be used to measure IRE-1α activity in vitro.
Five μl of a reaction mixture comprising IX reaction buffer (5× reaction buffer is 100 mM Hepes pH 7.5, 250 mM KOAc, 2.5 mM MgCl2), 3 mM DTT, and 0.4% polyethylene glycol water is added to each well of 384 well plates. Twenty-five nanoliters of a 1 mM test compound solution are added to test wells. Three μl of a […] IRE-1α preparation are added to each test well and to positive control wells (final concentration 5.82 ng/well). […]
The plates are covered with lids and incubated for one hour at 30° C. The plates are then transferred to an ACQUEST™ microplate reader. Data is analyzed using data analysis software, and the percent activity of IRE-1α is calculated.
IC50 for inhibition of IRE-1α of compounds identified in Table 1 was measured as described in EXAMPLE 35.

IC50: < 100 nM
Compound: COc1cc2c(C)c(CC(=O)N3CCOCC3)c(=O)oc2c(C=O)c1O [Example 167]
